Assay results published in patent publication US9815836B2, “Macrocyclic compounds as IRAK1/4 inhibitors and uses thereof” (Merck Patent GmbH, priority 2015, dated 2017).
pIC50: −log10 of the molar value.

Sequences of proteins named here, by UniProt entry; tags and fusion partners are left off. Residues count along the entry.
UniProt P51617, 194-712: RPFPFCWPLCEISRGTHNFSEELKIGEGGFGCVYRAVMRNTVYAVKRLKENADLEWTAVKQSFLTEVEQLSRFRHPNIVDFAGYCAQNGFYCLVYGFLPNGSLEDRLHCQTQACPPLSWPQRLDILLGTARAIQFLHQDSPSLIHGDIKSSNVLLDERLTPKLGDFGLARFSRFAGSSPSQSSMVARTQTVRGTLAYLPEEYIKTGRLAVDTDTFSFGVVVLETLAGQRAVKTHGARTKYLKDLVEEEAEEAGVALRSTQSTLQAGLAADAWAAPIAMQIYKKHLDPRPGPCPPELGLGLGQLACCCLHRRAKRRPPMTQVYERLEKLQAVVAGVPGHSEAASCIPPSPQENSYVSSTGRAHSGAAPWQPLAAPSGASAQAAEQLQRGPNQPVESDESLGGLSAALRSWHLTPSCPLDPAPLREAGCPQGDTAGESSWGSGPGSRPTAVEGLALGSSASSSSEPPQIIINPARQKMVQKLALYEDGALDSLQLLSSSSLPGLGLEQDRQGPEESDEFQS

Target: IRAK1 (Homo sapiens (Human), UniProt P51617)
Assay: IRAK1 enzymatic assay (ADP-Glo luminescence)
Type: biochemical
Details: human purified recombinant His-TEV-IRAK1 (194-712), ATP 1 μM
Procedure: In this assay, IRAK1 hydrolyses ATP and autophosphorylates. Measurement of IRAK-1 inhibition is performed in 384-well format based on luminescence assay (ADP-Glo™ Kinase Assay from Promega). Purified human recombinant IRAK1 ([…]) and serial diluted compounds in DMSO (range of concentration from 10 μM to 0.5 nM) or controls (1% DMSO) are incubated for 15 minutes at RT in assay buffer containing 50 mM Hepes pH 7.0, Fatty acid-free BSA 0.1%, Dithiothreitol (DTT) 2 mM, MgCl2 10 mM, EGTA 0.5 mM, Triton X-100 0.01%. The kinase reaction is then initiated by the addition of ATP at a concentration of 1μM. After 2 hours of incubation at RT, the reaction is stopped and the unconsumed ATP depleted by the addition of ADP-Glo™ Reagent according to supplier instructions. After 40 minutes of incubation at RT, the Kinase Detection Reagent is then added to the assay plate according to supplier instructions. After 20 minutes of incubation at RT, the luminescence signal is measured with a luminometer (PerkinElmer Envision or equivalent reader).

“(9E)-17-methyl-4,5,13,16, 17,20,26-heptaazatetracyclo[20.3.1.1^2,^5.0^1^5,^1^9]heptacosa-1(25),2(27),3,9,15,18,22(26),23-octaene-14,21-dione [Compound 34]” was tested, and the pIC50 was 6.00 to 7.00.
